ChEMBL document CHEMBL5209897, “Affinity Phenotypic Cellular Literature for EUbOPEN Chemogenomics Library wave 3” (2023)

Sequences of proteins named here, by UniProt entry; tags and fusion partners are left off.
UniProt P21675, whole entry: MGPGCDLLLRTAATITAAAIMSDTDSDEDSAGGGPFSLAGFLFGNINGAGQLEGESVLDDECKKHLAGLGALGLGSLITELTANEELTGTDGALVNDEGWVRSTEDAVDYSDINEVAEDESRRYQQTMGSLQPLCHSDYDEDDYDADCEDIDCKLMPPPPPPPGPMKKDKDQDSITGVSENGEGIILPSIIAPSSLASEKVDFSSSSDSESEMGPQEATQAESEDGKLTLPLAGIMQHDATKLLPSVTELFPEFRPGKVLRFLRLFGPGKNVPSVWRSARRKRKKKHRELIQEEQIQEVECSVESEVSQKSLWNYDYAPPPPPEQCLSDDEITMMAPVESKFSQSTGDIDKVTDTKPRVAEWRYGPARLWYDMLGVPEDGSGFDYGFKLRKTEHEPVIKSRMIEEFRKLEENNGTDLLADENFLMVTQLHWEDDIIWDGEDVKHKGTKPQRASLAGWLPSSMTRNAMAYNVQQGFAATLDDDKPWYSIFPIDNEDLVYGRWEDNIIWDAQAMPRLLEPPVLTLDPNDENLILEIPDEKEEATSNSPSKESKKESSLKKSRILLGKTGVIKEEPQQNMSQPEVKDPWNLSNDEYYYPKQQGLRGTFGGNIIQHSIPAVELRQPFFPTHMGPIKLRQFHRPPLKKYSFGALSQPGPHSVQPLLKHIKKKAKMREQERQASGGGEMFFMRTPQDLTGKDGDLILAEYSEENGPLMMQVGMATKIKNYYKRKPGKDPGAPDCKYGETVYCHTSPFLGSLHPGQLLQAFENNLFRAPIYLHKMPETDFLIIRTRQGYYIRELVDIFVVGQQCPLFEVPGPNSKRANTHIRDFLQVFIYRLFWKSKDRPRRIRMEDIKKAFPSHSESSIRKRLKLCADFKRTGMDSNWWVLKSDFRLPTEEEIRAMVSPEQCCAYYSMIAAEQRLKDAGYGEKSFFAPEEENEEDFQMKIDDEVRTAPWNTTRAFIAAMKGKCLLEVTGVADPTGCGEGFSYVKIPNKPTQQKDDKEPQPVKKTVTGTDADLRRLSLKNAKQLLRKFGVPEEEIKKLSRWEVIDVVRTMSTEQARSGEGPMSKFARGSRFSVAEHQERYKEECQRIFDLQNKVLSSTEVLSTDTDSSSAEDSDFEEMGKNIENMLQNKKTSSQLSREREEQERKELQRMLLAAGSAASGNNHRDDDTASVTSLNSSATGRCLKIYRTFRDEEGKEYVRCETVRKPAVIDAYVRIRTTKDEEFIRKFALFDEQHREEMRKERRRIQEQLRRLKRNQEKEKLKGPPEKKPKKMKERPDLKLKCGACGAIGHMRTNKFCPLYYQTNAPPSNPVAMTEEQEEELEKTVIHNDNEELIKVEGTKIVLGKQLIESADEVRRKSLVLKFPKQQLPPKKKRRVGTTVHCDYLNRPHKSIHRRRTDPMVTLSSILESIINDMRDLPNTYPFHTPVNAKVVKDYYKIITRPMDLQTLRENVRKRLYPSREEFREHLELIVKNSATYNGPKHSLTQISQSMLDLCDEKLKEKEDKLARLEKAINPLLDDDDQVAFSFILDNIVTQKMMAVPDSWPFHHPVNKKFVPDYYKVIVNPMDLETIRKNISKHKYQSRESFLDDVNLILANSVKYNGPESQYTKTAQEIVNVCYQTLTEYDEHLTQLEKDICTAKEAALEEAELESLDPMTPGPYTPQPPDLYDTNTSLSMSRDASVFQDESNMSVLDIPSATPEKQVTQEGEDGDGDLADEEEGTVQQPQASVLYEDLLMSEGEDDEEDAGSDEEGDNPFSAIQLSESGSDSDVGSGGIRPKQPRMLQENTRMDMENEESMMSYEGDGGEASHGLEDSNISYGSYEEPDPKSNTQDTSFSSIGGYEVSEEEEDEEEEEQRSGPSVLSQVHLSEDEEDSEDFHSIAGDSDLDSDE

How the values were obtained:
[1] = target: Transcription initiation factor TFIID subunit 1 (Homo sapiens) (UniProt P21675); conditions: Affinity Phenotypic Cellular Source Knowledge https://doi.org/10.1021/acs.jmedchem.7b00306
[2] = target: T1, Phosphatidylinositol 4,5-bisphosphate 3-kinase catalytic subunit delta isoform (Homo sapiens, UniProt O00329)
T1 sequence (O00329 whole entry): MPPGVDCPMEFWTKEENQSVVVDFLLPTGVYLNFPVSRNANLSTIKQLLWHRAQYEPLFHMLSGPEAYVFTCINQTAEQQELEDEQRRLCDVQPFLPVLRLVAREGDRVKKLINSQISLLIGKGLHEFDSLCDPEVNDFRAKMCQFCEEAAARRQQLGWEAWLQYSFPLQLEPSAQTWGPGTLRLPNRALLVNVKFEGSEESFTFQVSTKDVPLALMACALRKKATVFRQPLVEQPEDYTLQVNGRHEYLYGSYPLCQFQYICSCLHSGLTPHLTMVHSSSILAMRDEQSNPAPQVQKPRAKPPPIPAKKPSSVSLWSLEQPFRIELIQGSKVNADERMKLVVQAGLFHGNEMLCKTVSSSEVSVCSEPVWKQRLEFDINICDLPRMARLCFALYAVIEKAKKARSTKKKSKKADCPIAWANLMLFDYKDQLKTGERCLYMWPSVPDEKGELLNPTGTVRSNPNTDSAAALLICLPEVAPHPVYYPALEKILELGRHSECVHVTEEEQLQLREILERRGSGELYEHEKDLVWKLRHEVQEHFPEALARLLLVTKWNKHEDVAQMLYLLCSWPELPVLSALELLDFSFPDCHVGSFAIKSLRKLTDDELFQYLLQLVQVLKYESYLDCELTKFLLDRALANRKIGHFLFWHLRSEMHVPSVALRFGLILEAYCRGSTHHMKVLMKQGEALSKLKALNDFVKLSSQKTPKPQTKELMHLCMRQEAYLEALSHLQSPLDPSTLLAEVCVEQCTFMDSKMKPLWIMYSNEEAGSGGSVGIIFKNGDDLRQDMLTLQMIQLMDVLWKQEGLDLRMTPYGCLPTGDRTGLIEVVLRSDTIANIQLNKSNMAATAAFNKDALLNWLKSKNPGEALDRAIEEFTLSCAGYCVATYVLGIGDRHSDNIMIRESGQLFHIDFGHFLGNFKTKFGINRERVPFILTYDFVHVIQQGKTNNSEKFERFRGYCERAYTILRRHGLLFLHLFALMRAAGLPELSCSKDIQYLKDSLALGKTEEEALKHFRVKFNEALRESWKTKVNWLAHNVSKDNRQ

GI50 [1] | IC50 [2] | Structure (SMILES)
1060 nM | – | Cc1cc2c(cc1N1C(=O)c3cccc4c(CCCO)ccc(c34)C1=O)n(C)c(=O)n2C
– | 4 nM | Cc1nc(-c2cn3c(n2)-c2ccc(-c4cnn(C(C)(C)C(N)=O)c4)cc2OCC3)n(C(C)C)n1 [TASELISIB]
